Earlier results, collected in PMC10648141, “Screening of Oral Potential Angiotensin-Converting Enzyme Inhibitory Peptides from Zizyphus jujuba Proteins Based on Gastrointestinal Digestion In Vivo” (International Journal of Molecular Sciences, 2023).

Amino acid sequences for entries named in this document (tags omitted). Residues count along the entry.
UniProt P12821, 30-1306 limits assumed: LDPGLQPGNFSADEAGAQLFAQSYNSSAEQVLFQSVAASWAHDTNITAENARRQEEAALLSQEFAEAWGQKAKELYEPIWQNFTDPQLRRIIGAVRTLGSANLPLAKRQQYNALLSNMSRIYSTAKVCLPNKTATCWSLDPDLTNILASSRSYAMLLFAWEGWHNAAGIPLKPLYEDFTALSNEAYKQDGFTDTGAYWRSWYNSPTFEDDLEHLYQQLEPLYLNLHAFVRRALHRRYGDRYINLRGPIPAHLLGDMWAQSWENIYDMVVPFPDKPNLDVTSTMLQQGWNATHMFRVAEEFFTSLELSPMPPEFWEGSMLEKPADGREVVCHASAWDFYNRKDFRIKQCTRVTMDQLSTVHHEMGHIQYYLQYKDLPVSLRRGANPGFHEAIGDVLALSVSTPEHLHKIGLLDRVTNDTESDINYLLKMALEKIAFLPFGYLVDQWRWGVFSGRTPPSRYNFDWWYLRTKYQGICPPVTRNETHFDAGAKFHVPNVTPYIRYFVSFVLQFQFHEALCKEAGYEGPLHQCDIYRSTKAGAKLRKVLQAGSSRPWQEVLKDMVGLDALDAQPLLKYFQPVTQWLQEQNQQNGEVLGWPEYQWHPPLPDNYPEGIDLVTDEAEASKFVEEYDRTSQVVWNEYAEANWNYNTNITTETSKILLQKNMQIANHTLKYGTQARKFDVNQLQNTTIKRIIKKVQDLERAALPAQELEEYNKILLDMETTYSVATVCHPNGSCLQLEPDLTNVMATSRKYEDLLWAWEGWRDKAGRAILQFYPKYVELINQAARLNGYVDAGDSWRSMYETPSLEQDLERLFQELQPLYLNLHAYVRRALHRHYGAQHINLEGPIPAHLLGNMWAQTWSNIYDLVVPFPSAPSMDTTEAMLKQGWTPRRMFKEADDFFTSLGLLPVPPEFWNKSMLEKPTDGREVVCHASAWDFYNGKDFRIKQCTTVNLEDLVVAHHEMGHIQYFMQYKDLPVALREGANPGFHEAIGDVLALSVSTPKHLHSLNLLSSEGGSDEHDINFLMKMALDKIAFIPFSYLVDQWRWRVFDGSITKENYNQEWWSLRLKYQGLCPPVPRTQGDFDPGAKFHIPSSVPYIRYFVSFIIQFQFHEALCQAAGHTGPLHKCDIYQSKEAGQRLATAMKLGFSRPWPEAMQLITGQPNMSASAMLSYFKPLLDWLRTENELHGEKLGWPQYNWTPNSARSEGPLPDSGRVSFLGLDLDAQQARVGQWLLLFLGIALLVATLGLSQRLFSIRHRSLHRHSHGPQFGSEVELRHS

Target: ACE (Homo sapiens, UniProt P12821)
Settings: ACE-inhibitory activity used as 3D-QSAR input (training set 34, test set 12 marked *); ref our group and the DFBP database; cited from earlier work

N[C@@H](CS)C(=O)N[C@@H](CS)C(=O)O
PIC50: -0.99
